Source: publication PMC7723054
This is one part of the list.

T1: LIN28A (human?, UniProt Q9H9Z2 1-209)
T1 sequence: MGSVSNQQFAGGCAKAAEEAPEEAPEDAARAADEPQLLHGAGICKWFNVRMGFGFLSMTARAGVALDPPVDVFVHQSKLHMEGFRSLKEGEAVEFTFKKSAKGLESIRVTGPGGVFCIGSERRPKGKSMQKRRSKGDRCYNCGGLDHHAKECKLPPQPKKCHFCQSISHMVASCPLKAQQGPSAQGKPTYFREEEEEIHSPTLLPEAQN

T2: CIRBP (Homo sapiens, UniProt Q14011 1-172)
T2 sequence: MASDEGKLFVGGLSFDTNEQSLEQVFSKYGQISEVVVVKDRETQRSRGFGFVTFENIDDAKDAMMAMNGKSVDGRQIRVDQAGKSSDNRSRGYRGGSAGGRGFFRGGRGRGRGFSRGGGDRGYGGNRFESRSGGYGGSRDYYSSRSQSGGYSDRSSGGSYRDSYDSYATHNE

T3: DHX36 (Homo sapiens, UniProt Q9H2U1 1-1008)
T3 sequence: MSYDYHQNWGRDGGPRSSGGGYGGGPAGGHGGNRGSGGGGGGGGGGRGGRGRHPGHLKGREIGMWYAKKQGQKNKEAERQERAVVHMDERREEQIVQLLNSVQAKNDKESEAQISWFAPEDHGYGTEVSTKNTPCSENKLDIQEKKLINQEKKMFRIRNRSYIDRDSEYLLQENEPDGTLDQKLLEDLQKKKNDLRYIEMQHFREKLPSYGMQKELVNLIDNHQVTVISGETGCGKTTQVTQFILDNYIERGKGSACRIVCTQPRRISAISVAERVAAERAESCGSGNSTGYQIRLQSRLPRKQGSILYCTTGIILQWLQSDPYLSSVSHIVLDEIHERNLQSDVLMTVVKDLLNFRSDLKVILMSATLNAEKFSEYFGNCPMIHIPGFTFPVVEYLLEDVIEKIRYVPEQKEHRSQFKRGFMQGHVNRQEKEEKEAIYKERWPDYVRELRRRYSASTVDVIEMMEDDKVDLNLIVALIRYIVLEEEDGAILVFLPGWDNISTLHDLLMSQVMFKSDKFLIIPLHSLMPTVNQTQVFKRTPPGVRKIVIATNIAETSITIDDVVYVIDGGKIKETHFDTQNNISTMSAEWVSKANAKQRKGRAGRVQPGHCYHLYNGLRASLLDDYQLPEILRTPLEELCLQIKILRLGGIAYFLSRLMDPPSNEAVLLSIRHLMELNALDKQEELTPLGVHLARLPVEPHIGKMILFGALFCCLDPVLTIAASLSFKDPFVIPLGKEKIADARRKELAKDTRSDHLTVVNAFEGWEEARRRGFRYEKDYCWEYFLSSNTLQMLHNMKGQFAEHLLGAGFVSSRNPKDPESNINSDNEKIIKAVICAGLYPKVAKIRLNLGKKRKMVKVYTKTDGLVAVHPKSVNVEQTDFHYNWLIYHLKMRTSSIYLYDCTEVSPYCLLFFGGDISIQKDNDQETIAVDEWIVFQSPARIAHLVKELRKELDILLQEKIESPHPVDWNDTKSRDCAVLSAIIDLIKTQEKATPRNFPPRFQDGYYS

B1: hsa-mir-6085 (structured_RNA)
RNA: GGGAAUAUCAGGUGCUAUAUUGCCGACAGGUGUACGAAGUUUCAGCUACAUAGUUCAUGCUGAGGCCGGGAUUUCAUGCAGAAAACUGGUUGCAAAAGGUGCUGAAGGCUGAAGCUUCGUGCAC
B2: hsa-mir-761 (structured_RNA)
RNA: GGGAAAGCGGGUAGCAUAUAAGCCAACCGGUGUACGAAGUUUCAGCCACAGUUCUGGGCUGAAGCUUCGUGCAC
B3: hsa-mir-1271 (structured_RNA)
RNA: GGGAAGUAGUCCAUCCGAGUACCCAGUAGGUGUACGAAGUUUCAGCCACUCAGUAAAUAUUUGUUGAGUGGCUGAAGCUUCGUGCAC
B4: PARIS_ID16 (structured_RNA)
RNA: GGGAGUUGUGAAAGGUUCGCCUGUCACGGGUGUACGAAGUUUCAGCUCCUACUGGUGGUCUGUAAGAUGAGUUAGGGGCUGAAGCUUCGUGCAC
B5: hsa-mir-3918 (structured_RNA)
RNA: GGGAAUGUCCAGCCUGGCGAUCAAUCUGGGUGUACGAAGUUUCAGCGACUGCUCAAGGUCAAAGGGGUCGCUGAAGCUUCGUGCAC
B6: hsa-mir-1203 (structured_RNA)
RNA: GGGACAACAUGAAUUGGCCGAGAAGUGAGGUGUACGAAGUUUCAGCGCUCAAGCCACAGCAGGGUGUUUAGCGCUCUUCAGUGGCUCCAGGCUGAAGCUUCGUGCAC
B7: hsa-mir-2681 (structured_RNA)
RNA: GGGAAUAGGCCCGCAACUGGAAUACUAUGGUGUACGAAGUUUCAGCGAGACUGCCCAAAGACUCUUCAGUAUCGCUGAAGCUUCGUGCAC
B8: hsa-mir-6749 (structured_RNA)
RNA: GGGAAAUUAAACUGGCGGUGUACCUGUCGGUGUACGAAGUUUCAGCGGAGCUCUGUCCUGUCUCACUCAUUGCUCCGCUGAAGCUUCGUGCAC
B9: hsa-mir-4517 (structured_RNA)
RNA: GGGAAACGUUAAGUGGGAUUCGCUAGUCGGUGUACGAAGUUUCAGCUGAGGAGCUUAGCAAGUAGCUAAGGCCAGAGCUGAAGCUUCGUGCAC
B10: hsa-mir-217 (structured_RNA)
RNA: GGGAAAUUGUGAGGUAGAAUUGCGCAACGGUGUACGAAGUUUCAGCGGAUAAGAAUCAGUCACGCUGAAGCUUCGUGCAC
B11: hsa-mir-512-2_512-1 (structured_RNA)
RNA: GGGACUCUCCCGGUGUCAUACGUUAGCGGGUGUACGAAGUUUCAGCACUUUCUGGUGCCAGAAUGAAAGUGCUGAAGCUUCGUGCAC
B12: hsa-mir-4507 (structured_RNA)
RNA: GGGAAACUGUAAAACAGUGCACCCUGGAGGUGUACGAAGUUUCAGCUGGGUUAAGCCGAGCUGGGCUGAAGCUUCGUGCAC
B13: hsa-mir-6784 (structured_RNA)
RNA: GGGACGAGUUAAGACCAGCCGAUGCAAAGGUGUACGAAGUUUCAGCAGGGACCCCCGGAGUCUGUCACGGUCUCAGCUGAAGCUUCGUGCAC
B14: hsa-mir-4528 (structured_RNA)
RNA: GGGACGGUCAAAGCUGCGUCAGCACUAAGGUGUACGAAGUUUCAGCUGAUCAUUAUAUGUAUGAUGAGAUCAUGCUGAAGCUUCGUGCAC
B15: hsa-mir-495 (structured_RNA)
RNA: GGGAAAGGGCGAUCUUACACCUCCGACUGGUGUACGAAGUUUCAGCUUUUCGCUUUAUAUGUGACGAAACGCUGAAGCUUCGUGCAC
B16: hsa-mir-8061 (structured_RNA)
RNA: GGGAAAGGAAUCUGCGAAGUUAGAGGUUGGUGUACGAAGUUUCAGCUGUUCAGUGGGAUUUGGAGAGCUGAAGCUUCGUGCAC
B17: hsa-mir-5194 (structured_RNA)
RNA: GGGAAUCAAGCAGUGUGGCAGGAAUCUAGGUGUACGAAGUUUCAGCCUCAGGAAUUGGAUAAGCUUUUCUGAGGCUGAAGCUUCGUGCAC
B18: hsa-mir-7854 (structured_RNA)
RNA: GGGAAUAUCAUGAGUGCGUUUGAAGCCCGGUGUACGAAGUUUCAGCUUGAGCAUCUUCUGGGCAGCUGAGCUGAAGCUUCGUGCAC
B19: hsa-mir-802 (structured_RNA)
RNA: GGGAACCCUAAACGGAAUGCGAUCGAGCGGUGUACGAAGUUUCAGCUUGUGUCCAUCAUGCAACAAGCUGAAGCUUCGUGCAC
B20: hsa-mir-3148 (structured_RNA)
RNA: GGGACUAGAUAUUGCCGACAAUUACGUGGGUGUACGAAGUUUCAGCGCUUAUUGAUGUAGCCAACAAGCGCUGAAGCUUCGUGCAC
B21: hsa-mir-6849 (structured_RNA)
RNA: GGGAUCUAUCGGGGAGCUGCAGUAUACUGGUGUACGAAGUUUCAGCGUGUGGAGAGAGCACUGAGCCUGCCCACCGCUGAAGCUUCGUGCAC
B22: hsa-mir-4707 (structured_RNA)
RNA: GGGAGUAGGCACCCGGUCAAGAGCUAAAGGUGUACGAAGUUUCAGCGGUUCUGGGGUGUAGACGCUGCUGGCCAGCCGCUGAAGCUUCGUGCAC
B23: hsa-mir-3690-1_3690-2 (structured_RNA)
RNA: GGGAAACAGUAAAGCCGGCAAGAAACCAGGUGUACGAAGUUUCAGCAAAGAGGUGUUUCUACUCCAUGCUGAAGCUUCGUGCAC
B24: hsa-mir-190a (structured_RNA)
RNA: GGGAAGGUUUGUUAAAGCAGGUUGCGAAGGUGUACGAAGUUUCAGCUAGGUUGUUAUUUAAUCCAACUGCUGAAGCUUCGUGCAC
B25: hsa-mir-18a (structured_RNA)
RNA: GGGAAAGCCGGGGAGUUAAAUCUCAAAGGGUGUACGAAGUUUCAGCAGAUAGUGAAGUAGAUUAGCAUCUACUGCUGAAGCUUCGUGCAC
B26: hsa-mir-5003 (structured_RNA)
RNA: GGGAAAAGGGUUUGCGCUACAAGUGGACGGUGUACGAAGUUUCAGCGGUAGAGAUGAUUUUUCCUACUGCUGAAGCUUCGUGCAC

target: T1, LIN28A; test: FOREST: bead pull-down of RNA structure library v1, barcode microarray; U1A/LIN28A: 20 mM HEPES pH 7.5, 80 mM KCl, 20 mM NaCl, 10% glycerol, 2 mM DTT, 0.1 ug/uL BSA, 4 C; BG4/CIRBP/DHX36: 10 mM Tris-HCl pH 7.5, 100 mM KCl (or LiCl),; high values mean tight binding

| Binder | binding signal [z-score] |
| --- | --- |
| B1 | 0.854 |
| B2 | 0.852 |
| B3 | 0.845 |
| B4 | 0.844 |
| B5 | 0.843 |
| B6 | 0.842 |
| B7 | 0.841 |
| B8 | 0.841 |
| B9 | 0.841 |
| B10 | 0.84 |
| B11 | 0.84 |
| B12 | 0.838 |
| B13 | 0.838 |
| B14 | 0.836 |
| B15 | 0.832 |
| B16 | 0.83 |
| B17 | 0.829 |
| B18 | 0.826 |
| B19 | 0.82 |
| B20 | 0.82 |
| B21 | 0.82 |
| B22 | 0.815 |
| B23 | 0.812 |
| B24 | 0.811 |
| B25 | 0.809 |
| B26 | 0.805 |

target: T2, CIRBP; test: as above

| Binder | binding signal [z-score] |
| --- | --- |
| B1 | 1.2 |
| B2 | 0.309 |
| B3 | 1.91 |
| B4 | 0.615 |
| B5 | 0.647 |
| B6 | 1.59 |
| B7 | 0.285 |
| B8 | 1.01 |
| B9 | 1.06 |
| B10 | 1.89 |
| B11 | -0.628 |
| B12 | 0.717 |
| B13 | 0.134 |
| B14 | -1.83 |
| B15 | 1.29 |
| B16 | 2.12 |
| B17 | 0.765 |
| B18 | 1.49 |
| B19 | 1.34 |
| B20 | 0.592 |
| B21 | -0.281 |
| B22 | -0.553 |
| B23 | 1.52 |
| B24 | 1.49 |
| B25 | 0.982 |
| B26 | 0.0925 |

target: T3, DHX36; test: as above

| Binder | binding signal [z-score] |
| --- | --- |
| B1 | -0.3 |
| B2 | 0.168 |
| B3 | 0.692 |
| B4 | 0.136 |
| B5 | 2.06 |
| B6 | -0.2 |
| B7 | 0.17 |
| B8 | 0.363 |
| B9 | -0.00972 |
| B10 | 1.71 |
| B11 | -0.132 |
| B12 | -1.41 |
| B13 | -0.219 |
| B14 | -0.0532 |
| B15 | 0.35 |
| B16 | 1.93 |
| B17 | 0.542 |
| B18 | 0.527 |
| B19 | 0.0941 |
| B20 | -0.338 |
| B21 | 0.899 |
| B22 | 0.67 |
| B23 | 0.246 |
| B24 | 0.834 |
| B25 | -0.287 |
| B26 | -0.135 |
